The values that follow come from US5776456A, “Therapeutic application of chimeric and radiolabeled antibodies to human B lymphocyte restricted differentiation antigen for treatment of B cell lymphoma” (IDEC Pharmaceuticals Corporation, priority 1995, dated 1998).

Where only a bound is given, the exact number is not on record here.

The nature of data set [1]: Biodistribution of yttrium-[90]-labeled 2B8-MX--DTPA in BALB/c mice. Type of data set: in vivo. The protocol: Using a similar approach, 2B8-MX--DTPA was also radiolabeled with yttrium-[90] and its biological distribution evaluated in BALB/c mice over a 72-hour time period. Following purification by HPLC size exclusion chromatography, four groups of five mice each were injected intravenously with approximately 1 μCi of clinically-formulated conjugate (specific activity:12.2 μCi/mg); groups were subsequently sacrificed at 1, 24, 48 and 72 hours and their organs and tissues analyzed as described above. Radioactivity associated with each tissue specimen was determined by measuring bremstrahlung energy with a gamma scintillation counter. Activity values were subsequently expressed as percent injected dose per gram tissue or percent injected dose per organ. While organs and other tissues were rinsed repeatedly to remove superficial blood, the organs were not perfused. Thus, organ activity values were not discounted for the activity contribution represented by internally associated blood.
The biodistribution of yttrium-[90]-labeled conjugate, having a specific activity of 12.2 mCi/mg antibody, was evaluated in BALB/c mice. Radioincorporations of >90% were obtained and the radiolabeled antibody was purified by HPLC. Tissue deposition of radioactivity was evaluated in the major organs, and the skin, muscle, bone, and urine and feces over 72 hours and expressed as percent injected dose/g tissue. […] Importantly, the radioactivity associated with the bone ranged from 4.4% of the injected dose per gram bone at 1 hour to 3.2% at 72 hours.

The next data set has as its system Ramos tumor cells. The data set is described as follows: Mouse xenographic model with B cell lymphoblastic tumor (Ramos tumor cells). Type of data set: in vivo, nu/nu mice. The note with it: Y2B8 100 μCi; FIG. 11.
Data set [2] has as its system CD20 positive SB target cells. The data set is described as follows: Antibody dependent cellular cytotoxicity effector assay, CD20 positive cells. Type of data set: cell-based. The note with it: human peripheral lymphocytes, effector:target 100:1, 4 hr, 37° C., FIG. 8.

B1: Y2B8: Yttrium-[90]-labeled 2B8-MX--DTPA (conjugate, chains of the INN, looked up)
heavy: QAYLQQSGAELVRPGASVKMSCKASGYTFTSYNMHWVKQTPRQGLEWIGAIYPGNGDTSYNQKFKGKATLTVDKSSSTAYMQLSSLTSEDSAVYFCARVVYYSNSYWYFDVWGTGTTVTVSAPSVYPLAPVCGDTTGSSVTLGCLVKGYFPEPVTLTWNSGSLSSGVHTFPAVLQSDLYTLSSSVTVTSSTWPSQSITCNVAHPASSTKVDKKIEPRGPTIKPCPPCKCPAPNLLGGPSVFIFPPKIKDVLMISLSPIVTCVVVDVSEDDPDVQISWFVNNVEVHTAQTQTHREDYNSTLRVVSALPIQHQDWMSGKEFKCKVNNKDLPAPIERTISKPKGSVRAPQVYVLPPPEEEMTKKQVTLTCMVTDFMPEDIYVEWTNNGKTELNYKNTEPVLDSDGSYFMYSKLRVEKKNWVERNSYSCSVVHEGLHNHHTTKSFSR
light: QIVLSQSPAILSASPGEKVTMTCRASSSVSYMHWYQQKPGSSPKPWIYAPSNLASGVPARFSGSGSGTSYSLTISRVEAEDAATYYCQQWSFNPPTFGAGTKLELKRADAAPTVFIFPPSDEQLKSGTASVVCLLNNFYPREAKVQWKVDNALQSGNSQESVTEQDSKDSTYSLSSTLTLSKADYEKHKVYACEVTHQGLSSPVTKSFN
modifications: yttrium-90, MX-DTPA chelator (tiuxetan)
notes: Yttrium-[90]-labeled 2B8-MX--DTPA
On to B1, for which the “radioactivity associated with the bone” value was 4.4 % of the injected dose per gram bone in data set [1] (1 hour) and 3.2 % of the injected dose per gram bone in data set [1] (72 hours). In addition, the “radioactivity associated with the blood” value in data set [1] (1 hour, about 1 μCi i.v.) is recorded as “approximately 39.2 % injected dose per gram”; in data set [1] (72 hours) it was “roughly 15.4 % injected dose per gram”. Further, in data set [1] (during the 72 hour study), the “release of free radiometal from the conjugate” value is reported as “little free radiometal was released”. Moreover, the “radioactivity associated with tail, heart, kidney, muscle and spleen” value in data set [1] (throughout the experiment (1-72 hours)) is reported as not above 10.2%. Also, the “tumoricidal effect (tumor size, length x width)” value in the data set with Ramos tumor cells was “tumoricidal effects”.

B2: 2B8: murine anti-CD20 monoclonal antibody; hybridoma ATCC HB 11388 (antibody, chains of the INN, looked up)
heavy: QAYLQQSGAELVRPGASVKMSCKASGYTFTSYNMHWVKQTPRQGLEWIGAIYPGNGDTSYNQKFKGKATLTVDKSSSTAYMQLSSLTSEDSAVYFCARVVYYSNSYWYFDVWGTGTTVTVSAPSVYPLAPVCGDTTGSSVTLGCLVKGYFPEPVTLTWNSGSLSSGVHTFPAVLQSDLYTLSSSVTVTSSTWPSQSITCNVAHPASSTKVDKKIEPRGPTIKPCPPCKCPAPNLLGGPSVFIFPPKIKDVLMISLSPIVTCVVVDVSEDDPDVQISWFVNNVEVHTAQTQTHREDYNSTLRVVSALPIQHQDWMSGKEFKCKVNNKDLPAPIERTISKPKGSVRAPQVYVLPPPEEEMTKKQVTLTCMVTDFMPEDIYVEWTNNGKTELNYKNTEPVLDSDGSYFMYSKLRVEKKNWVERNSYSCSVVHEGLHNHHTTKSFSR
light: QIVLSQSPAILSASPGEKVTMTCRASSSVSYMHWYQQKPGSSPKPWIYAPSNLASGVPARFSGSGSGTSYSLTISRVEAEDAATYYCQQWSFNPPTFGAGTKLELKRADAAPTVFIFPPSDEQLKSGTASVVCLLNNFYPREAKVQWKVDNALQSGNSQESVTEQDSKDSTYSLSSTLTLSKADYEKHKVYACEVTHQGLSSPVTKSFN
Take B2: the “antibody dependent cell mediated lysis” value in data set [2] is recorded as “statistically insignificant effect”.
